Read-outs that look alike come from different tables or passages of the source.
Experiments:
[1] = target: His-GST-PARP7 (Homo sapiens (Human), UniProt Q7Z3E1); assay: PARP7 biochemical assay
[2] = target: PARP2 (Homo sapiens (Human), UniProt Q9UGN5); assay: PARP2 biochemical assay

Chains of the proteins cited; added tags and fusions are not shown. Lines headed by an entry give the natural chain unless they say otherwise; changes in a name come on top.
UniProt Q7Z3E1: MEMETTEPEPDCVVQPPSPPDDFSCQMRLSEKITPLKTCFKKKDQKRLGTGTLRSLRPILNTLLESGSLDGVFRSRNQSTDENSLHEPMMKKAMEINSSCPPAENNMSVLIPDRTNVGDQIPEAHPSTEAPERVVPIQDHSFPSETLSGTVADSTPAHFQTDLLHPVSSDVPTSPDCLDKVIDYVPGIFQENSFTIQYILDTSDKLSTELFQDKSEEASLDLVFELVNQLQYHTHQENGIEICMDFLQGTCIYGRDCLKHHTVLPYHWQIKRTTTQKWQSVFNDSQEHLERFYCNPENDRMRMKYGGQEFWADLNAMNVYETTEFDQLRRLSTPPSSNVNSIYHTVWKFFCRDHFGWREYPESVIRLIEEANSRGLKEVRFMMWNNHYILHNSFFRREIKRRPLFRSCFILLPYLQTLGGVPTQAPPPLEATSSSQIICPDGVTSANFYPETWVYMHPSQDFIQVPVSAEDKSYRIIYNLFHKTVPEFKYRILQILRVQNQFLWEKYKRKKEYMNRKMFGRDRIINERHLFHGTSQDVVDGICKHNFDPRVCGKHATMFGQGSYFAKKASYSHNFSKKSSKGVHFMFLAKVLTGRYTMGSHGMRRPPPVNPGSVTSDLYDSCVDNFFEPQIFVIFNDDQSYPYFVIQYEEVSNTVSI
UniProt Q9UGN5: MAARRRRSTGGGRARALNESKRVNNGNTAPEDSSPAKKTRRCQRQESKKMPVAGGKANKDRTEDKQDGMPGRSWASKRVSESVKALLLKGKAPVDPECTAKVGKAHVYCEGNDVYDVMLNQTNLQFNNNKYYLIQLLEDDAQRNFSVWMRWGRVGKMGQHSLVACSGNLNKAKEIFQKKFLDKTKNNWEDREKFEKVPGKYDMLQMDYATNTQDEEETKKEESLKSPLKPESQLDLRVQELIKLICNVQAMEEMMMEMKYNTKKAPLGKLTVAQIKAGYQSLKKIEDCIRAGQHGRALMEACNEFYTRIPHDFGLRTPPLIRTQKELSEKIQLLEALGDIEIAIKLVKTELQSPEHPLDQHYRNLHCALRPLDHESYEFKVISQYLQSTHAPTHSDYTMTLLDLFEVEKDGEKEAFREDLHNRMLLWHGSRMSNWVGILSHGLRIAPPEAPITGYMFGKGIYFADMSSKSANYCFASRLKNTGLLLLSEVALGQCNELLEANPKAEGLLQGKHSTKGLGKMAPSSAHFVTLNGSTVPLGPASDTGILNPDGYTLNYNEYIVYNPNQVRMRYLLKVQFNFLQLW

| Structure (SMILES) | IC50 [1] [nM] | IC50 [2] [nM] | IC50 ([2]; read-out: PARP2 IC50) [nM] |
| --- | --- | --- | --- |
| N#Cc1ccc(N2CCN(C(=O)c3cccc(Cc4n[nH]c(=O)c5ccc(Oc6ccccc6)cc45)c3)CC2)nc1 [Example 2, 6-(4-(3-((4-Oxo-7-phenoxy-3,4-dihydrophthalazin-1-yl)methyl)benzoyl)piperazin-1-yl)nicotinonitrile] | < 50 |  |  |
| N#Cc1ccc(N2CCN(C(=O)c3cccc(Cc4n[nH]c(=O)c5ccc(Cl)cc45)c3)CC2)nc1 [Example 5, 6-(4-(3-((7-Chloro-4-oxo-3,4-dihydrophthalazin-1-yl)methyl)benzoyl)piperazin-1-yl)nicotinonitrile] | < 50 |  |  |
| N#Cc1ccc(N2CCN(C(=O)c3cccc(Cc4n[nH]c(=O)c5ccc(F)cc45)c3)CC2)nc1 [Example 6, 6-(4-(3-((7-Fluoro-4-oxo-3,4-dihydrophthalazin-1-yl)methyl)benzoyl)piperazin-1-yl)nicotinonitrile] | < 50 |  |  |
| N#Cc1ccc(N2CCN(C(=O)c3cc(Cc4n[nH]c(=O)c5ccc(OCC6CC6)cc45)ccc3F)CC2)nc1 [Example 7, 6-(4-(5-((7-(Cyclopropylmethoxy)-4-oxo-3,4-dihydrophthalazin-1-yl)methyl)-2-fluorobenzoyl)piperazin-1-yl)nicotinonitrile] | < 50 | 100 to 500 |  |
| CN(C)c1ccc2c(=O)[nH]nc(Cc3ccc(F)c(C(=O)N4CCN(c5ccc(C#N)cn5)CC4)c3)c2c1 [Example 28, 6-(4-(5-((7-(Dimethylamino)-4-oxo-3,4-dihydrophthalazin-1-yl)methyl)-2-fluorobenzoyl)piperazin-1-yl)nicotinonitrile] | < 50 |  | 100 to 500 |

Reference: patent US20260055079A1, “PHTHALAZINONE COMPOUNDS AS PARP7 INHIBITORS” (AZKARRA THERAPEUTICS, INC., priority 2022, published 2026)
